The values below come from PubChem BioAssay (Tox21).

“And” between values parts separate entries of the source, which are not always exact repeats. Identical values can stand only once. Only a part is listed here, and it is no random draw. Records with an inconclusive call do not appear. Where a call stands in place of a potency, no number is given. The source made the active and inactive calls. Calls come from the whole dose curve; as a rule, active = well fitted activation curve with a large enough effect in the repeat runs; inconclusive = weak or mixed curves; inactive = flat fitted curve, though single readings scatter.
Potency is the fitted concentration of half-maximal effect.

This assay can be described thus: A CellTox Green Cytotoxicity Assay to monitor cytotoxicity in HEK293 cells - 24 hour (AID 1224875). Note: nearly all actives have a fitted effect of over 45% in size. The following applies: CellTox Green fluorescence; series mostly up to 76.8 µM. An excerpt:
National Center for Advancing Translational Sciences [NCATS]
NIH Chemical Genomics Center [NCGC]
U.S. Environmental Protection Agency [EPA]
National Institutes of Environmental Health Sciences [NIEHS]
National Toxicology Program [NTP]
Cell-based models are critical for drug discovery. Determining the natural cytotoxic effects resulting from test compounds is an essential research activity. A CellTox Green Cytotoxicity Assay to monitor cytotoxicity in real time of continues cell culture during 40 hours of the compound treatment was used to screen Tox21 10K library compounds in Hek293 cells. CellTox Green Cytotoxicity Assay is a nonlytic, homogeneous, biofluorescent method to measure cytotoxicity in cell culture after experimental manipulation. The assay system uses a proprietary asymmetric cyanine dye that is excluded from viable cells but preferentially stains the dead cell's DNA. […] Viable cells produce no appreciable increases in fluorescence. Therefore, the fluorescence signal produced by the binding interaction with dead cell DNA is proportional to cytotoxicity.
The mixture of Hek293 cell suspension and reagents were dispensed at 600cells/6 ul/well in 1536-well tissue culture treated black solid bottom plates using a Multidrop dispenser. After the assay plates were incubated at a 37 C/5% CO2 incubator for 5 hours, 23 nL of compounds dissolved in DMSO, positive and negative controls was transferred to the assay plate by a pintool work station. The plates were incubated at 37 C for 40 hours. The fluorescence intensity were measured at 0h, 8h, 16h, 24h, 32h and 40h time points using ViewLux plate reader during compound treatment.
Regarding `CC(C)OP(=S)(OC(C)C)SCCNS(=O)(=O)c1ccccc1`, the Potency entry was “inactive”. In the case of `ClP(Cl)c1ccccc1`, the Potency result was “inactive”. On the same count and under the same terms, with `NC(=O)Nc1ccc([As](=O)(O)O)cc1` the entry was “inactive”. For `CN(C(=O)Cc1ccc(Cl)c(Cl)c1)[C@H]1CC[C@@]2(CCCO2)C[C@@H]1N1CCCC1`, the Potency entry was “inactive”. On the same count and under the same terms, the same measure for `CN(N=O)C(=N)N[N+](=O)[O-]`: “inactive”.

Take `COC(=O)Cl`: the Potency entry was “inactive”.

On to `CN(C(=O)Cc1ccccc1)[C@H]1CC[C@@]2(CCCO2)C[C@@H]1N1CCCC1`, for which the Potency entry was “inactive”.

Consider `CCOP(=S)(CC)Sc1ccccc1` (centres undefined), for which the Potency entry was “inactive”. In the case of `CCOC(=O)Cl`, the Potency result is “inactive”.

Take `CCNC(C)Cc1ccc2c(c1)OCO2` (centres undefined): the Potency result is “inactive”.

Regarding `O=C1C2CC=CCC2C(=O)N1SC(Cl)(Cl)C(Cl)Cl` (centres undefined), the Potency was active: 39.2 µM and active: 7.76 µM. The same measure, in the same setting: the same measure for `O=[As]c1ccccc1` (centres undefined): active: 616 nM; for `O=[p+]1oc2ccccc2c2ccccc21` (centres undefined): “inactive”; for `O=[N+]([O-])c1ccc([N+](=O)[O-])cc1`: “inactive”.

Take `Cc1cc([N+](=O)[O-])cc([N+](=O)[O-])c1O`: the Potency result was “inactive”. Consider `CCCCC(CC)CO[P+](=O)OCC(CC)CCCC` (centres undefined), for which the Potency result is “inactive”. On to `CCCCOP(OCCCC)OCCCC`, for which the Potency entry is “inactive”.

As for `O=C(Cl)Oc1ccccc1`, the Potency entry is “inactive”. The same measure, in the same setting: the same measure for `CCCCO[P+](=O)OCCCC`: “inactive”. Consider `COP(=S)(Cl)OC`, for which the Potency entry is “inactive”. For `CCC(C)(OOC(C)(C)C)OOC(C)(C)C`, the activity change was inactive: -5.94% [at 15.8 µM, stronger effect = higher value]. Take `CC(C)CCCCCCCOP(OCCCCCCCC(C)C)Oc1ccccc1`: the Potency entry is “inactive”. Turning to `CN(C(=O)Cc1cccc2occc12)[C@H]1CC[C@@]2(CCCO2)C[C@@H]1N1CCCC1`, the Potency result is “inactive”. Same read-out and setting: with `Cc1cc([N+](=O)[O-])c(O)c([N+](=O)[O-])c1` the entry was “inactive”; with `O=P(Cl)(Oc1ccccc1)Oc1ccccc1`, “inactive”. The same measure, in the same setting: the same measure for `O=[N+]([O-])c1ccc(S(=O)(=O)O)c([N+](=O)[O-])c1`: “inactive”; for `O=C(Cl)OCCOC(=O)Cl`: “inactive”; for `O=P(Cl)(Cl)c1ccccc1`: “inactive”. The same measure, in the same setting: with `O=[P+](Oc1ccccc1)Oc1ccccc1` the entry was “inactive”.
